# Laboratory results taken from patent publication US20080207927A1, “PROCESS FOR THE PRODUCTION OF GLYCEROL ACETALS” (priority 2006, published 2008).
# Test: Solubility in soybean oil fatty acid methyl ester
# Format: physicochemical
substance,measurement,value
glycerol acetal of isobutyraldehyde [Example 1],Solubility in soybean oil fatty acid methyl ester,>50%
